Reference: patent publication US9670204B2, “Compounds and pharmaceutical compositions thereof for the treatment of inflammatory disorders” (Galapagos NV, priority 2013, dated 2017)

Molecular target: hENPP2 (UniProtKB/SwissProt Q13822) (Homo sapiens (Human), UniProt Q13822)
Experiment: hENPP2 biochemical assay, LPC as substrate
Details: LPC (palmitoyl 16:0) as substrate
Protocol: The principle of the assay consists in quantifying the released choline with an enzymatic method using choline oxidase and peroxidase. Choline oxydation by choline oxydase releases betaine and peroxide. The latter is quantified in presence of HRP that converts the peroxide detection agent TOOS and 4-aminoantipyrine into quinoneimine dye. The appearance of quinoneimine dye is measured spectrophotometrically at 555 nm and is proportional to the amount of choline released by ENPP2. Inhibition of ENPP2 will result in a decrease of the signal.
Compound IC50 values are determined in a hENPP2 (UniProtKB/SwissProt Sequence ref Q13822) biochemical assay using LPC as substrate.
The enzyme is diluted in 50 mM Tris-HCl pH 8.5, 500 mM NaCl, 5 mM KCl, 10 mM CaCl2, 0.1% fatty acid free BSA in a total volume of 10 μL. the reaction is started by the addition of 10 μL of 150 μM LPC (palmitoyl 16:0) diluted in the same buffer as described above and the mixture is incubated at 37° C. for 30 min. The reaction is terminated and choline quantified by the addition of a 25 μL of a mixture containing 0.6 U/mL of choline oxidase, 0.6 U/mL of peroxydase, 1.8 mM TOOS, 1.2 mM amino-antipyrine, 20 mM EGTA (stop-developer solution) diluted in the buffer described above. […] is read on the Envision after an incubation of 30 min at room temperature (Excitation 555 nm, excitation light=70%).

Q: For “{2-[4-(2-Ethyl-3-{[4-(4-fluoro-phenyl)-thiazol-2-yl]-methyl-amino}-imidazo[1,2-a]pyridin-6-yl)-piperazin-1-yl]-4, 5-dihydro-oxazol-5-yl}-methanol [Compound 222]”, which IC50 is on record?
A: 500 to 1000 nM
